# Target: recombinant human Myt1 (Homo sapiens, UniProt Q99640)
# Amino acid sequences for entries named in this document (tags omitted).
# UniProt Q99640, whole entry: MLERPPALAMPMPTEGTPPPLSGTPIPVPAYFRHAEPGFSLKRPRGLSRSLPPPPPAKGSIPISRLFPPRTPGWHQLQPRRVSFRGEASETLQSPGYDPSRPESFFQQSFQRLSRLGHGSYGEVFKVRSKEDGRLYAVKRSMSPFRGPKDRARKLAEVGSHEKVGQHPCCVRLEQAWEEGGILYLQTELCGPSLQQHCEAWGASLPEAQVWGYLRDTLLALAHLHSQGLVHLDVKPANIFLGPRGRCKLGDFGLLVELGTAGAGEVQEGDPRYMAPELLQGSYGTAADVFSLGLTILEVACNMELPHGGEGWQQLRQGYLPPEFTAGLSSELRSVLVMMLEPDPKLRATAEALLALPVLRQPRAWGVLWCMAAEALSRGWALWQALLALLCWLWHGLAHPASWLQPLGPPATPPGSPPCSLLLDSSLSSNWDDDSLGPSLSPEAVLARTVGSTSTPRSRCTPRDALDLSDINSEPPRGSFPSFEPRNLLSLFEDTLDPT
# Test: Myt1 enzymatic assay (ADP-Glo kinase assay, IC50 and % max inhibition)
# Type: biochemical
# Conditions: read-out: Myt1 IC50, recombinant human Myt1 18 nM, ATP 10 μM
row,SMILES,IC50
1,[2H]C([2H])([2H])c1nc2c(C(N)=O)c(N)n(-c3c(C)ccc(O)c3C)c2nc1Br [272],< 10 nM
2,Cc1ccc(O)c(C)c1-n1c(N)c(C(N)=O)c2nc(N3CC4CCC(C3)O4)cnc21 [Compound 92],< 10 nM
3,"Cc1ccc(O)c(C)c1-n1c(N)c(C(N)=O)c2nc(C(C)(C)F)cnc21 [Compound 178, 6-amino-2-(1-fluoro-1-methyl-ethyl)-5-(3-hydroxy-2,6-dimethyl-phenyl)pyrrolo[2,3-b]pyrazine-7-carboxamide]",89 nM
4,CNC(=O)C1CCN(c2cnc3c(n2)c(C(N)=O)c(N)n3-c2c(C)ccc(O)c2C)CC1 [48],> 5000 nM
5,CNC(=O)C1CCN(c2cnc3c(n2)c(C(N)=O)c(N)n3-c2c(C)ccc(O)c2C)CC1 [47],< 10 nM
6,[2H]C([2H])([2H])c1nc2c(C(N)=O)c(N)n(-c3c(C)ccc(O)c3C)c2nc1Br [273],585 nM
7,[2H]C([2H])([2H])c1nc2c(nc1C1CC1)c(C(N)=O)c(N)n2-c1c(C)ccc(O)c1C [Compound 112],1380 nM

# Reference: patent publication US20230151014A1 (Repare Therapeutics Inc., priority 2020, published 2023)
